In patent publication US5780605A, “6,9-bridged erythromycin derivatives” (Abbott Laboratories, priority 1997, dated 1998):

System: Streptococcus Pheumoniae 5979
Assay: in vitro antibacterial activity (MIC), BHI agar dilution
Assay type: cell-based
Details: 35-37° C., 20 to 24 hours
Experimental: Representative compounds of the present invention were assayed in vitro for antibacterial activity as follows: Twelve petri dishes containing successive aqueous dilutions of the test compound mixed with 10 mL of sterilized Brain Heart Infusion (BHI) agar (Difco 0418-01-5) were prepared. Each plate was inoculated with 1:100 (or 1:10 for slow-growing strains, such as Micrococcus and Streptococcus) dilutions of up to 32 different microorganisms, using a Steers replicator block. The inoculated plates were incubated at 35°-37° C. for 20 to 24 hours. In addition, a control plate, using BHI agar containing no test compound, was prepared and incubated at the beginning and end of each test.
An additional plate containing a compound having known susceptibility patterns for the organisms being tested and belonging to the same antibiotic class as the test compound was also prepared and incubated as a further control, as well as to provide test-to-test comparability. Erythromycin A was used for this purpose.
After incubation, each plate was visually inspected. The minimum inhibitory concentration (MIC) was defined as the lowest concentration of drug yielding no growth, a slight haze, or sparsely isolated colonies on the inoculum spot as compared to the growth control.

## CC[C@H]1OC(=O)[C@H](C)[C@@H](O[C@H]2C[C@@](C)(OC)[C@@H](O)[C@H](C)O2)[C@H](C)[C@@H](O[C@@H]2O[C@H](C)C[C@H](N(C)C)[C@H]2O)[C@](C)(O)C[C@@H](C)C(=O)[C@H](C)[C@@H](O)[C@]1(C)O [Ery. A, Erythromycin A, reference compound]
  MIC (minimum inhibitory concentration): > 128
